Source: patent US7517889B2, “2,6-substituted-4-monosubstitutedamino-pyrimidine as prostaglandin D2 receptor antagonists” (Aventis Pharmaceuticals, Inc., priority 2004, dated 2009)

Target: T1, DP receptor (Homo sapiens, UniProt Q13258)
T1 construct: the human cell line LS174T, which expresses the endogenous DP receptor; endogenous in cells; host or cells: LS174T human cell line
T1 sequence (Q13258 1-359): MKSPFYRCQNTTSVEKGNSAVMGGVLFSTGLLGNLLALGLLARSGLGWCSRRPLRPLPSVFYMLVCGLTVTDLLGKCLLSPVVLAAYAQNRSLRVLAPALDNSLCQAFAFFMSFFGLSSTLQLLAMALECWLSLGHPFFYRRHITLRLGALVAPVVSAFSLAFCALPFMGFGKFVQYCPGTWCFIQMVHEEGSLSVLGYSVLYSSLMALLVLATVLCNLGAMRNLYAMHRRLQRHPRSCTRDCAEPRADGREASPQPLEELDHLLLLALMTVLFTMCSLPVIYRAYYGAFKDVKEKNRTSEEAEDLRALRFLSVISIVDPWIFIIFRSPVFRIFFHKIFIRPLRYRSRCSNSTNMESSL
Assay: SPA cAMP assay in human LS174 T cells (human DP functional assay)
Format: cell-based
Details: inhibition of PGD2 (15 nM final) stimulated cAMP, LS174T cells expressing endogenous DP receptor
Description: The inhibitory effects of the compounds according to the invention are assessed in a human DP functional assay. A cAMP assay is employed using the human cell line LS174T, which expresses the endogenous DP receptor.
Protocol for SPA cAMP Assay in Human LS174 T Cells
• 1) Add equal volumes of tracer, antiserum and SPA anti-rabbit reagent to a bottle, ensuring that a sufficient volume of this mixture is prepared for the desired number of wells (150 μL/well). • 2) Mix thoroughly. • 3) This immunoreagent solution should be freshly prepared before each assay and not re-used.
Add 50 μL of […] IBMX into 100 mL PBS to make a final concentration of 100 μM and sonicate at 30° C. for 20 minutes.
Before each assay, it is freshly prepared. Add 3 μL of 10 mM stock solution to 20 mL DMSO, mix it thoroughly, and transfer 10 mL to 40 mL PBS.
Compound dilution is carried out in Biomex 2000 (Beckman) using Method 1_cAMP DP 11 points.
5 μL of each compound from the 10 mM stock compound plates is transferred to the wells of a 96-well plate respectively as below.
Fill the plate with 45 μL of DMSO except column 7 is filled with 28 μL DMSO. Pipette column 1 thoroughly, and transfer 12 μL into column 7 parallel. […]
The cAMP concentrations (pmol/mL) of unknown samples are calculated from a standard curve of cAMP versus CPM. % inhibition is calculated using the following formula: […]

How did the IC50 turn out when `COc1ccc(CCNc2cc(-c3cccc(-c4cnco4)c3)nc(OC)n2)cc1` [Example 11(b), [2-Methoxy-6-(3-oxazol-5-yl-phenyl)-pyrimidin-4-yl]-[2-(4-methoxy-phenyl)-ethyl]-amine] was run?
Its IC50 is 2.6 nM.
